Measured values taken from ChEMBL document CHEMBL1155077, “Kinesin spindle protein (KSP) inhibitors. 9. Discovery of (2S)-4-(2,5-difluorophenyl)-n-[(3R,4S)-3-fluoro-1-methylpiperidin-4-yl]-2-(hydroxymethyl)-N-methyl-2-phenyl-2,5-dihydro-1H-pyrrole-1-carboxamide (MK-0731) for the treatment of taxane-refractory cancer” (J Med Chem, 2008).

Assay: Inhibition of human KSP
Outline: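 His6-tagged human KSP motor domain (1-367), bacterially expressed, 0.25 nM, with 0.5 µM tubulin as paclitaxel-stabilized microtubules and 1 mM ATP. Buffer: 80 mM K-HEPES pH 6.8, 40 mM KCl, 1 mM EGTA, 2 mM MgCl2, 1 mM DTT, 0.01% BSA, 2.5% DMSO. 11-point 3-fold titration, 2 µM to 34 pM; 3 h at RT. Released phosphate read by quinaldine red/molybdate at 540 nm. Mean of at least 3 experiments.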

In the case of `CN1CC[C@H](N(C)C(=O)N2CC(c3cc(F)ccc3F)=C[C@@]2(CO)c2ccccc2)[C@H](F)C1`, the IC50 is reported as 2.2 nM.
